Experimental findings from US20230416227A1, “PLASMA KALLIKREIN INHIBITORS” (Merck Sharp & Dohme LLC, priority 2020, published 2023) are described below.

Amino acid sequences for entries named in this document (tags omitted). Residues count along the entry.
UniProt P03951, 388-625 limits assumed: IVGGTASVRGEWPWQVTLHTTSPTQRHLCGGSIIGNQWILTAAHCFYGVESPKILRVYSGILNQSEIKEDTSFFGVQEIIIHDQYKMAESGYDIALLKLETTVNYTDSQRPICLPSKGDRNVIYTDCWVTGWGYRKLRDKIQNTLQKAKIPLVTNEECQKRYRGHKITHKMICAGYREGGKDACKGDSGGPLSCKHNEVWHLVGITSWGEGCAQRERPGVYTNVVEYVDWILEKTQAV
UniProt P03951, 19-387 partner limits assumed: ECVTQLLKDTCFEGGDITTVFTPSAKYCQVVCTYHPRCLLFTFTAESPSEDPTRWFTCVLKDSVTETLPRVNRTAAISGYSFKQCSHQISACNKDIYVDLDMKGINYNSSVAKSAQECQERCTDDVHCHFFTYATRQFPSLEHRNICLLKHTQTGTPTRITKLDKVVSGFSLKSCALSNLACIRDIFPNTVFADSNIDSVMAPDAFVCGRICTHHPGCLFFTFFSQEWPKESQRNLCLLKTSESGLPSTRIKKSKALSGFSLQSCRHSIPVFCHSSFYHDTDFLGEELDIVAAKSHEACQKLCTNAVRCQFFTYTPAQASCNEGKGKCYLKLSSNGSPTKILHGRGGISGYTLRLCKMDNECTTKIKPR
UniProt P03952, 391-638 limits assumed: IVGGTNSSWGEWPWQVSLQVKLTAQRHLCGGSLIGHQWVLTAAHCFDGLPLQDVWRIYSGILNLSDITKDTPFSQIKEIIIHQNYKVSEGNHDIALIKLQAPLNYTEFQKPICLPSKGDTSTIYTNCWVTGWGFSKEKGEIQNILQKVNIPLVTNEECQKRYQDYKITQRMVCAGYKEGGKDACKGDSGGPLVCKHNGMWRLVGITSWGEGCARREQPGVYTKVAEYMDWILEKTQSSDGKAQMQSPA
UniProt P03952, 20-390 partner limits assumed: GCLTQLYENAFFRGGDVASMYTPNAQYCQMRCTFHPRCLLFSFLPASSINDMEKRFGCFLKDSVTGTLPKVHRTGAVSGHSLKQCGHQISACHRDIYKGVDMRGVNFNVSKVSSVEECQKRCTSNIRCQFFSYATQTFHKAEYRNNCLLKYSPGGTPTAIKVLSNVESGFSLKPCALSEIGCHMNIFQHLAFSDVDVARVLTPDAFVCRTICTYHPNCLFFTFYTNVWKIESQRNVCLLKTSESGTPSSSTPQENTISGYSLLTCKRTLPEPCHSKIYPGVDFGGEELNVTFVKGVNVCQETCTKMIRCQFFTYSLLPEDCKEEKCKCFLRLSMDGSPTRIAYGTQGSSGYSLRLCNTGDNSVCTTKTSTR

Molecules are shown by their SMILES. pIC50: −log10 of the molar value.

As a reminder, the pIC50 is the negative decadic logarithm of the IC50, by convention in mol/L.

One test addresses human factor XIa (Homo sapiens, UniProt P03951). In words: Factor XIa Assay. The following applies: read-out: FXIa IC50; human factor XIa 0.04 nM, substrate GPR-AFC, 30 min pre-incubation at 25° C., pH 7.4. As for the experimental part:
(§1) The effectiveness of a compound of the present invention as an inhibitor of Coagulation factor XIa can be determined using a relevant purified serine protease, and an appropriate synthetic substrate. The rate of hydrolysis of the chromogenic or fluorogenic substrate by the relevant serine protease was measured both in the absence and presence of compounds of the present invention. Assays were conducted at rt or at 37° C. […] A decrease in the rate of fluorescence change in the presence of inhibitor is indicative of enzyme inhibition. Such methods are known to one skilled in the art. The results of this assay are expressed as the half-maximal inhibitory concentrations (IC50), or the inhibitory constant, Ki.
Compounds were pre-incubated for 30 min at 25° C. with human (0.04 nM) factor XIa in 50 mM HEPES buffer with 150 mM sodium chloride, 5 mM calcium chloride, 0.1% PEG 8000, pH 7.4. factor XIa enzymatic activity was determined by addition of the substrate glycine-proline-arginine-7-amido-4-trifluoromethylcoumarin (GPR-AFC) and measurement of the fluorescence at 400/505 nm after a 60 min incubation at 25° C. The % inhibition for each data point was calculated from the data and analyzed using the log (inhibitor) vs. response four parameters equation to determine the half-maximal inhibitory concentrations (IC50). […]

A further test concerns the target Human plasma kallikrein (Homo sapiens, UniProt P03952). In words: Plasma Kallikrein Assay. The following applies: read-out: Plasma Kallikrein IC50; purified Human plasma kallikrein 0.5 nM, substrate Acetyl-K-P-R-AFC, pH 7.4. How it is done:
as §1, with “plasma kallikrein” for “Coagulation factor XIa”, “Ki. […]” for “Ki.”
Activity assays were performed by diluting a stock solution of substrate at least tenfold to a final concentration ≤0.2 Km into a solution containing enzyme or enzyme equilibrated with inhibitor. Times required to achieve equilibration between enzyme and inhibitor were determined in control experiments. The reactions were performed under linear progress curve conditions and fluorescence increase measured at 405 Ex/510 Em nm. […] IC50 was determined by inflection point from a four parameter logistic curve fit. Ki was calculated using the Cheng Prusoff equation, Ki=IC50/(1+([S]/Km)).

On to `O=C(Nc1cnn(Cc2cnc(N3CCC3)nc2)c1)c1cncc(-c2c(C(F)(F)F)ccc(Cl)c2F)n1`, for which the results for the pIC50 on human factor XIa and at Human plasma kallikrein were 6.27 and 7.65, respectively.
